Patent publication US20120016019A1, “PHARMACEUTICAL COMPOSITION FOR TREATING OR PREVENTING CANCER” (priority 2010, published 2012)

What was measured:
MDA-MB-231 = settings: human, 7 d, 220 nM
Procedure: (§1) Cells were plated into 48-well Corning CellBind™ plates at densities of 20,000 cells for normal cells and 10,000˜20,000 cells for cancer cells. 24 to 48 h after plating, cells were treated with the composition according to the invention at concentrations of 4.5e-2M. The first time point treated with the composition of the invention is 0 h. At 3 days after the first treatment with the composition of the invention, medium was changed and the composition of the invention at the same concentrations were added to the cultured cells.
(§2) Cells were harvested using Trypsin-EDTA at the designated time points. When total cells for each well were counted with a Beckman-Coulter Z1 Particle Characterization Unit, the vertical axis represents 1/20 of cell number in the Figures attached to the specification, while when counted with a Beckman-Coulter Vi-Cell, the vertical axis represents cell number in the Figures. Two 48-well plates were used per cell line, and they were measured at 0 h, 12 h, 24 h, 48 h, 4 d and 7 d, respectively.
(§3) The viability was determined by using the trypan blue staining in the well of cell counting.

HeLa = settings: human, 48 h, 220 nM
Procedure: as §1, §2, §3

TT = test: Viability by trypan blue staining, TT; type: cell-based; settings: 2nd week (recovery), 7 d, single value

CC(=O)O[C@H]1C(=O)[C@@]2(C)[C@H]([C@H](OC(=O)c3ccccc3)[C@]3(O)C[C@H](OC(=O)[C@H](O)[C@@H](NC(=O)c4ccccc4)c4ccccc4)C(C)=C1C3(C)C)[C@]1(OC(C)=O)CO[C@@H]1C[C@@H]2O [Taxol]
33.3%: viability (%) (MDA-MB-231) | viability (%) (HeLa) | viability (%) calculated from the cell counts (TT)
